This experiment deals with NAD-dependent protein deacylase sirtuin-5, mitochondrial (Homo sapiens, UniProt Q9NXA8). In words: Binding affinity to human N-terminal His-tagged SIRT5 (34 to 302 residues) expressed in Escherichia coli at 600 uM by isothermal titration calorimetry. For orientation: ITC needs no label: the signal is the heat of the interaction.

Sequences of proteins named here, by UniProt entry; tags and fusion partners are left off. A change or cut given only in a name is not applied to a line headed by its entry.
UniProt Q9NXA8: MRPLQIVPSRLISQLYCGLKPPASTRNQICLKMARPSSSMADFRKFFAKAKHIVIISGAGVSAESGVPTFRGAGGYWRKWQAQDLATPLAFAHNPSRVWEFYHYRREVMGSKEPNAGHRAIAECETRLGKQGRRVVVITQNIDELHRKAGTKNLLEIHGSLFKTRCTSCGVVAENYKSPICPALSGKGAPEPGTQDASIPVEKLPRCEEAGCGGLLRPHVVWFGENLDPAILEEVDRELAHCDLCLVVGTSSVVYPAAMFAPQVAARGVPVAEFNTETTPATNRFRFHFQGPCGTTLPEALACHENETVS

A word on the Kd: it is the concentration at which binding is half-saturated. A lower Kd goes with a tighter complex.

In turn, `CC(C)c1ccccc1Cc1cc(C(=O)Nc2ccc(S(=O)(=O)c3ccccc3C(C)(C)C)cc2)c(O)c(O)c1O` came in with a Kd of 4.63 µM.

The values are drawn from ChEMBL document CHEMBL4680222, “Sensitive fluorogenic substrates for sirtuin deacylase inhibitor discovery” (Eur J Med Chem, 2020).
